We go through one molecule from patent US20220000881A1, “TREATMENT OF EXPOSURE TO CHLORINE GAS WITH SCOPOLAMINE” (published 2022).

The test concerns Sprague-Dawley rats exposed to chlorine.

Take `CN1[C@@H]2CC(OC(=O)C(CO)c3ccccc3)C[C@H]1[C@@H]1O[C@@H]12` (some centres unmarked): where the note is “IM 0.15 mg/kg, 15 minutes after exposure, FIG. 1”, the “survival to 6 hours following exposure to high dose Cl2” value amounted to 100%. Moreover, the “survival to 6 hours following exposure to high dose Cl2, compared to no treatment” value (IM 0.15 mg/kg, IT 0.2 mg/kg or IN 0.16 mg/kg, 15 minutes after exposure, FIG. 1) is “improved survival”. The “percent of subjects with tremors/seizures due to Cl2 exposure, comparison of routes” value (IM 0.15 mg/kg, FIG. 3) is “best results being obtained with IM dosing”. Besides, the “percent of subjects with tremors/seizures due to Cl2 exposure” value (after scopolamine treatment (IM, IT or IN), FIG. 3) is listed as “decreased”. Moreover, under “general statement, following exposure to Cl2”, the “survival, hypotonia, bradycardia, ataxia/seizure activity following exposure to chlorine” value was “effective at improving survival, hypotonia, bradycardia, and in minimizing ataxia/seizure activity”.
